Where a name gives a salt, the structure may show the parent alone.
Details: inhaled; phase 1 study
Description: A phase I, double blind, randomised, placebo controlled study was conducted examining the safety, tolerability and pharmacokinetics of single 600 μg, 900 μg and 1200 μg doses in 16 healthy male volunteers. No evaluation for efficacy was conducted during the clinical study.

In the case of CN1CCc2cccc3c2[C@H]1Cc1ccc(O)c(O)c1-3 [Apomorphine HCl, apomorphine hydrochloride], the Maximum tolerated dose is reported as “around 900 μg”.
